Data taken from PubChem BioAssay AID2782 (National Center for Advancing Translational Sciences (NCATS), 2010).
The entries are a selection whose mix differs from that of the whole data set. Records with an inconclusive call do not appear. The source made the active and inactive calls. Calls follow the shape of the dose curve; as a rule, active = well fitted inhibition curve with a large enough effect in the polarisation, with a control signal flat (not every such curve was filed as active); inconclusive = small, poorly fitted or top-dose-only effect, or effect the other way, or a change in a side signal; inactive = no such curve, though single readings can be large or run the other way; the % refers to the polarisation.

Assay: Confirmation of Inhibitors Targeting the Menin-MLL Interaction in MLL Related Leukemias: Competition With Texas Red Labeled MLL-derived Mutant Peptide
Settings: fluorescence polarization, Texas Red MLL peptide displacement; at 94.6 µM (top of the series)
% is scaled to controls: 0 for no effect and ±100 for the full control effect.

For `O=[As](O)(c1cccs1)c1cccs1`, the FP change, negative = inhibition was inactive: -3.79%.
